Measurements taken from PubChem BioAssay AID1566 (Sanford-Burnham Center for Chemical Genomics, 2009).
The list shows a part of the results, in another mix than the full data. Active and inactive are the calls of the source. Cut-off read from the data, not from the text of the source: active = inhibition above about 50%; inactive = the rest.

Test: NOD2 signaling inhibitors, cell-based, luminescence, uHTS, HEK293 (AID 1566)
Settings: HEK293 NOD2/NF-kB luciferase reporter, at 4 µM, hits give high values
With `C[N+]1=C2C=CC=CC=C2SC12C([N+](=O)[O-])=CC([N+](=O)[O-])=C[C-]2[N+](=O)[O-]` (stereo not drawn) the inhibition was active: 95.5%.
With `O=[N+]([O-])c1ccc(O)c(/C=N/Nc2ccc([N+](=O)[O-])cc2[N+](=O)[O-])c1` the inhibition was active: 99.1%.
With `O=c1c2cc([N+](=O)[O-])ccc2[nH]c2c([N+](=O)[O-])cc([N+](=O)[O-])cc12` the inhibition was active: 73.4%.
